According to PMC5340297 (Bioorganic & medicinal chemistry letters, 2016):
pEC50: −log10 of the molar value.

Amino acid sequences for entries named in this document (tags omitted).
UniProt P08485, whole entry: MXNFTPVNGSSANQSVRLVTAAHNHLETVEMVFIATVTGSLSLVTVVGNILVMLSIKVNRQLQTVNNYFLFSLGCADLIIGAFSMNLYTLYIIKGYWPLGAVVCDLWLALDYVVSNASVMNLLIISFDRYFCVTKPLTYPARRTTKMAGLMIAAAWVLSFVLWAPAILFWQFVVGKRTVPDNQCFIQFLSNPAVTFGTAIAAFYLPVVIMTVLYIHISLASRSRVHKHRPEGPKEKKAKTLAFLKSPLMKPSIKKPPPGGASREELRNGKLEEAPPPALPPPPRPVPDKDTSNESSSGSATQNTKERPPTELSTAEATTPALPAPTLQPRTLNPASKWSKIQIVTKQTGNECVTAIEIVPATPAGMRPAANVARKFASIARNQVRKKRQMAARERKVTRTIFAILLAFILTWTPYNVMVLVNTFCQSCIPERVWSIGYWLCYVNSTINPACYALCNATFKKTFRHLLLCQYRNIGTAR
UniProt P08173, whole entry: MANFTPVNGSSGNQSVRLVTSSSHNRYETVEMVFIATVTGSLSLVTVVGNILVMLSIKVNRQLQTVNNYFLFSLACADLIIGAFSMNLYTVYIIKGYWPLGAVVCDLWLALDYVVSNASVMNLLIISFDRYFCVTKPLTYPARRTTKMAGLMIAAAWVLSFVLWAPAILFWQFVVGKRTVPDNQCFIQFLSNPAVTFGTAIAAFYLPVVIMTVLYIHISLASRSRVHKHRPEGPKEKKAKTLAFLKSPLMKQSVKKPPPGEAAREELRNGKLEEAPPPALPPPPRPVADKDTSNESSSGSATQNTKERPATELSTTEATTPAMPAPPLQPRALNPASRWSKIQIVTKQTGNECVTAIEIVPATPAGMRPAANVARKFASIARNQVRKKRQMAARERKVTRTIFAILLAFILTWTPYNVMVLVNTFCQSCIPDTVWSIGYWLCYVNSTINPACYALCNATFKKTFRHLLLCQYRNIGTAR

How the values were obtained:
rM4 = rM4 (Rattus norvegicus, UniProt P08485); assay: Calcium mobilization assay with rM4/Gqi5-CHO cells, EC20 acetylcholine; type: cell-based; conditions: read-out: rM4 EC50, n=3
hM4 = hM4 (Homo sapiens, UniProt P08173); assay: Calcium mobilization assay with hM4/Gqi5-CHO cells, EC20 acetylcholine; type: cell-based; conditions: read-out: hM4 EC50, n=3

Structure (SMILES): Cc1nnc2sc(C(=O)NCc3ccc(S(=O)(=O)C(F)(F)F)cc3)c(N)c2c1C [compound 5]
- pEC50 (rM4): 7.75
- pEC50 (hM4): 6.20
